# From PubChem BioAssay (EPA / NIEHS)
# Only a part is listed here, and it is no random draw. Activity calls are given as the source filed them. The calls were made as follows: active = hit-call score of the fitted dose curve at least 0.9, where 1 is the maximum; inactive = score below 0.9.
# Experiment: ATG_SREBP_CIS: Attagene CIS-FACTORIAL HepG2 Assay for human Sterol Regulatory Element Binding (SREBP) (AID 2282962)
# Details: HepG2 Attagene cis-factorial SREBP reporter, mRNA; actives raise or lower the signal
# Procedure: ATG_CIS is a cell-based, multiplexed-readout assay that uses HepG2, a human liver cell line, with measurements taken at 24 hours after chemical dosing in a 24-well plate.ATG_SREBP_CIS is one of 52 assay component(s) measured or calculated from the ATG_CIS assay. It is designed to make measurements of mRNA induction, a form of inducible reporter, as detected with fluorescence intensity signals by Reverse transcription polymerase chain reaction (RT-PCR) and Capillary electrophoresis technology.Data from the assay component ATG_SREBP_CIS was analyzed into 1 assay endpoint. This assay endpoint, ATG_SREBP_CIS, was analyzed with bidirectional fitting relative to DMSO as the negative control and baseline of activity. Using a type of inducible reporter, measures of mRNA for gain or loss-of-signal activity can be used to understand the reporter gene at the transcription factor-level as they relate to the gene SREBF1. Furthermore, this assay endpoint can be referred to as a primary readout, because this assay has produced multiple assay endpoints where this one serves a reporter gene function. To generalize the intended target to other relatable targets, this assay endpoint is annotated to the dna binding intended target family, where the subfamily is basic helix-loop-helix leucine zipper.
# Human liver HepG2 cells are transiently transfected with multiple reporter transcription units (MRTUs) in 6-well plates using FuGene 6 reagent (Roche; 3 ml FuGene/1 mg DNA). The MRTU constructs are regulated by a cis-regulating element (promoter). […] A major difference between the CIS and TRANS system is that in CIS activities of endogenous TFs are measured, whereas the TRANS assay evaluates changes in activities of exogenous, chimeric NR-Gal4 proteins. […] At the end of 24 hour incubation, total RNA was isolated using TriZol reagent (Invitrogen). The isolated RNA is then reverse-transcribed using oligo(dT) primer and Mo-MLV reverse transcriptase (Invitrogen) with DNAse I (Ambion) treatment for 30 min. The one-tenth of the produced cDNA was amplified by PCR using Taq DNA polymerase (Invitrogen) and two reporter sequence-specific primers. The PCR products were fluorescently labeled by primer extension with 6-arboxyfluorescein (6-FAM) 5'-labeled reporter sequence-specific primer (2 min at 95 C, 20 s at 68 C and 10 min at 72 C) and these products were digested with 5U of HpaI (New England Biolabs) for 2h at 37 C. The fragments were purified using Qiaquick PCR columns (Qiagen), analyzed on an ABI 3130xL genetic analyzer (Applied Biosystems) with peak positions identified by using a set of X-rhodamine (ROX)-labeled MapMarker1000 molecular weight standards (BioVentures). The raw capillary electrophoresis data was processed using Attagraph software (Attagene).
row,SMILES,outcome
1,O=[N+]([O-])OCC(CO[N+](=O)[O-])(CO[N+](=O)[O-])CO[N+](=O)[O-],inactive
2,COP(C)(=O)OC,inactive
3,Cc1cccc([N+](=O)[O-])c1[N+](=O)[O-],inactive
4,CN(C)CCCl,inactive
5,Cc1ccc([N+](=O)[O-])c([N+](=O)[O-])c1,inactive
6,COc1ccc([N+](=O)[O-])cc1[N+](=O)[O-],inactive
7,CC(C)N(CCO)C(C)C,inactive
8,Cc1c([N+](=O)[O-])cccc1[N+](=O)[O-],inactive
9,N#CBr,inactive
10,Cc1ccc([N+](=O)[O-])cc1[N+](=O)[O-],inactive
11,CC(C)OP(C)(=O)OC(C)C,inactive
12,O=[N+]([O-])c1cccc([N+](=O)[O-])c1,inactive
